The procedure of the data set:
NADPH (20 mmol/L, […]) was added to the pre-incubated incubation mixture and a reaction (incubation) was started. The final incubation volume was 1 mL. A sample containing no object compound was used as a control.
After incubation at 37° C. for 60 minutes, a 50 mmol/L aqueous dithiothreitol solution (100 μL, 5 μmol) was added to the incubation mixture, and the resultant mixture was subjected to centrifugation at 10,000 g for 5 minutes. The centrifugation supernatant was added to a solid phase extraction column (OASIS HLB 1 cc, 30 mg) that was pre-washed with 1 mL of methanol and activated with 1 mL of purified water. The column was washed with 1 mL of water and 1 mL of 5% methanol solution, and a reaction product was eluted with 1 mL of methanol. The solvent was removed by evaporation under nitrogen flow, and the residue was dissolved in 150 μL of acetonitrile:water (2:8) to prepare an analysis sample.
An AQCUITY UPLC system (WATERS) was used for separation by chromatography. Aliquots (10 μL) of the prepared analysis sample was injected into an AQCUITY UPLC BEH C18 column (2.1×100 mm, 1.7 μm). The separation by chromatography was performed under gradient conditions shown in the following table at a mobile phase flow rate of 0.5 mL/minute.
The LC column eluate obtained in step 2-1 was introduced into an LTQ XL ion trap mass spectrometer. […]

Each structure is given as a SMILES string.

Regarding `O=C(O)Cc1ccccc1Nc1c(Cl)cccc1Cl` [diclofenac], the “NUMBER OF IDENTIFIED REACTIVE METABOLITES (EXAMPLES)” value is “two”.

Source of the values: patent publication US9164075B2, “Glutathione alkylester isotopologue and method for detecting reactive metabolite” (priority 2011, dated 2015).
